The target of the assay is Vascular endothelial growth factor receptor 3 (Homo sapiens, UniProt P35916).

Amino acid sequences for entries named in this document (tags omitted).
UniProt P35916, whole entry: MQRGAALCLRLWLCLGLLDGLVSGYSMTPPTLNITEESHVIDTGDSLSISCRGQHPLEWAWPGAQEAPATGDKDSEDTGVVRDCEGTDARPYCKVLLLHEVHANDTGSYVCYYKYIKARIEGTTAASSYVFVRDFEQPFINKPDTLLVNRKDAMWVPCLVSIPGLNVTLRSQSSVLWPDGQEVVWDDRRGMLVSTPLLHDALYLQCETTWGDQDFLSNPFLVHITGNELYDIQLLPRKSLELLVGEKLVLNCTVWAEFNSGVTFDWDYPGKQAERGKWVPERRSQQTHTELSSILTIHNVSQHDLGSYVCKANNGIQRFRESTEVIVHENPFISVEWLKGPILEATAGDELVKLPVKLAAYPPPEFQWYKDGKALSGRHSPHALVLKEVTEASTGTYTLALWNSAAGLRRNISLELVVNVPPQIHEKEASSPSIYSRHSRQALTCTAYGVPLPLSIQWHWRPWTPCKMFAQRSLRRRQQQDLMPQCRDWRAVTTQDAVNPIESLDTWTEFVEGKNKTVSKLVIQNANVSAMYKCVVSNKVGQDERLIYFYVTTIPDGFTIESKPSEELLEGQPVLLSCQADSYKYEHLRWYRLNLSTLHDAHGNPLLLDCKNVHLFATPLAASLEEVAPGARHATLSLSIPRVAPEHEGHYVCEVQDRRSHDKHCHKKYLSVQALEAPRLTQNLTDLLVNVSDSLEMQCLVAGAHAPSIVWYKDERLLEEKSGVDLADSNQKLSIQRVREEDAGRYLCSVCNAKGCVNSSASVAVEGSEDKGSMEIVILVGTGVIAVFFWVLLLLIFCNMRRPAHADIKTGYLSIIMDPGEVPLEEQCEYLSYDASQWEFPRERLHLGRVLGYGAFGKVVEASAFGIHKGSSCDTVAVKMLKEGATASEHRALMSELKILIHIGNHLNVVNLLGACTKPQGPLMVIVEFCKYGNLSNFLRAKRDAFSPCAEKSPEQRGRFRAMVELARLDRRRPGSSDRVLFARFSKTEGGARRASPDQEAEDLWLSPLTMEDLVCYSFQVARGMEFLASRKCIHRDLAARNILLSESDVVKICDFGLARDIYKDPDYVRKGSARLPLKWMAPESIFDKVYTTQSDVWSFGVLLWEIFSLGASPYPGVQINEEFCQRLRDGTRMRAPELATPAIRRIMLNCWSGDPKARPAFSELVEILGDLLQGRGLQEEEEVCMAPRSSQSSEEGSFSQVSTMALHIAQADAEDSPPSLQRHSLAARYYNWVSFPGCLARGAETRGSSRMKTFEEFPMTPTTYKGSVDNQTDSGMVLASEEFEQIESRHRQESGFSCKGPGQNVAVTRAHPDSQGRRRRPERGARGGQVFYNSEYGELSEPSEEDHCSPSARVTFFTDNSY

The values that follow come from ChEMBL document CHEMBL5661970 (Cancer Res, 2006).

The IC50 is the point on the concentration scale where inhibition reaches its midpoint. High values mean a need for much substance, low ones inhibition by little substance.

Structures are written as SMILES.

Regarding `COc1cc2nccc(Oc3ccc(NC(=O)Nc4cc(C)on4)c(Cl)c3)c2cc1OC` [TIVOZANIB], 15 nM corresponded to half-maximal inhibition (IC50).
